In the test the target is T1, human 5-HT1A receptor (Homo sapiens, UniProt P08908).
T1 construct: purchased Euroscreen; host or cells: CHO-K1
Nature of the test: Radioligand competition binding and kinetics, CHO-K1 membranes. The note with it: [3H]-WAY100635, read-out: IC50 from binding assay. The protocol:
For kinetics of radioligand competitive binding, serial dilutions were performed from master solution in 100% DMSO to obtain intermediate concentrations 200-fold higher than the concentrations to be tested. Each test sample was diluted 100-fold in the assay buffer and dispensed into the test plate.
Determination of the Kon constant. Radioligand association kinetics on each receptor were performed by adding in the wells of a 96 well plate 50 μL of radioligand and 50 μL of membrane extracts. The samples were incubated for the times reported in Table 3 below at a temperature optimized for each receptor and filtered over a filter plate. After washing the filters 5 times with 0.5 mL of ice-cold washing buffer, 50 μL of Microscint 20 (Packard) were added to the filters and the plates were incubated 15 min on an orbital shaker and then counted for 1 min/well. This allowed determination of the kobs for each radioligand. […] The different kobs were then plotted against the [radioligand] and the K. was calculated using the following equation: kon=(kobs−koff)[radioligand].
Determination of the Koff constant. […] The samples were incubated as reported in Table 4 below at a temperature optimized for each receptor until binding equilibrium was reached as determined by the association kinetics experiment. […]
A general note: In a radioligand displacement assay an active substance lowers the binding of a labelled ligand.

The chains behind the UniProt entries cited, without tags or fusion partners.
UniProt P08908, whole entry: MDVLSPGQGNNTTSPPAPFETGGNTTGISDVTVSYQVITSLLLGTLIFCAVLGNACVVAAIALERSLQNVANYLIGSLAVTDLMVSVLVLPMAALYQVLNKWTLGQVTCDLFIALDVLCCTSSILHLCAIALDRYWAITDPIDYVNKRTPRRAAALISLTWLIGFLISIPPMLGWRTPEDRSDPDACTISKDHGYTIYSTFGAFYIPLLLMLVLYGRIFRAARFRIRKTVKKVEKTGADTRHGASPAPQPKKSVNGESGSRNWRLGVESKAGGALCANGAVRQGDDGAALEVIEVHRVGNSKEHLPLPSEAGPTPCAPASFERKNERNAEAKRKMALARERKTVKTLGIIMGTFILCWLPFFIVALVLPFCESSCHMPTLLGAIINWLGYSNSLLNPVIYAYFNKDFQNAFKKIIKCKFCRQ

As usually defined, the IC50 is the midpoint of a concentration-inhibition curve.

Consider `CNS(=O)(=O)Cc1ccc2[nH]cc(CCN(C)C)c2c1` [Sumatriptan, sumatriptan], for which the IC50 was found to be 0.778 µM.
